Among the data in PubChem BioAssay (EPA / NIEHS) are outcome and AC50 values, retold here.

SMILES strings stand for the structures. The entries are a selection whose mix differs from that of the whole data set. The source made the active and inactive calls. The calls were made as follows: active = hit-call score of the fitted dose curve at least 0.9, where 1 is the maximum; inactive = score below 0.9.

This assay is described as follows: ATG_SREBP_CIS: Attagene CIS-FACTORIAL HepG2 Assay for human Sterol Regulatory Element Binding (SREBP) (AID 2282962). The conditions noted are these: HepG2 Attagene cis-factorial SREBP reporter, mRNA; actives raise or lower the signal. The method, then:
ATG_CIS is a cell-based, multiplexed-readout assay that uses HepG2, a human liver cell line, with measurements taken at 24 hours after chemical dosing in a 24-well plate.ATG_SREBP_CIS is one of 52 assay component(s) measured or calculated from the ATG_CIS assay. It is designed to make measurements of mRNA induction, a form of inducible reporter, as detected with fluorescence intensity signals by Reverse transcription polymerase chain reaction (RT-PCR) and Capillary electrophoresis technology.Data from the assay component ATG_SREBP_CIS was analyzed into 1 assay endpoint. This assay endpoint, ATG_SREBP_CIS, was analyzed with bidirectional fitting relative to DMSO as the negative control and baseline of activity. Using a type of inducible reporter, measures of mRNA for gain or loss-of-signal activity can be used to understand the reporter gene at the transcription factor-level as they relate to the gene SREBF1. Furthermore, this assay endpoint can be referred to as a primary readout, because this assay has produced multiple assay endpoints where this one serves a reporter gene function. To generalize the intended target to other relatable targets, this assay endpoint is annotated to the dna binding intended target family, where the subfamily is basic helix-loop-helix leucine zipper.
Human liver HepG2 cells are transiently transfected with multiple reporter transcription units (MRTUs) in 6-well plates using FuGene 6 reagent (Roche; 3 ml FuGene/1 mg DNA). The MRTU constructs are regulated by a cis-regulating element (promoter). […] A major difference between the CIS and TRANS system is that in CIS activities of endogenous TFs are measured, whereas the TRANS assay evaluates changes in activities of exogenous, chimeric NR-Gal4 proteins. […] At the end of 24 hour incubation, total RNA was isolated using TriZol reagent (Invitrogen). The isolated RNA is then reverse-transcribed using oligo(dT) primer and Mo-MLV reverse transcriptase (Invitrogen) with DNAse I (Ambion) treatment for 30 min. The one-tenth of the produced cDNA was amplified by PCR using Taq DNA polymerase (Invitrogen) and two reporter sequence-specific primers. The PCR products were fluorescently labeled by primer extension with 6-arboxyfluorescein (6-FAM) 5'-labeled reporter sequence-specific primer (2 min at 95 C, 20 s at 68 C and 10 min at 72 C) and these products were digested with 5U of HpaI (New England Biolabs) for 2h at 37 C. The fragments were purified using Qiaquick PCR columns (Qiagen), analyzed on an ABI 3130xL genetic analyzer (Applied Biosystems) with peak positions identified by using a set of X-rhodamine (ROX)-labeled MapMarker1000 molecular weight standards (BioVentures). The raw capillary electrophoresis data was processed using Attagraph software (Attagene).
As for `ClP(Cl)c1ccccc1`, the result was inactive. On the same count and under the same terms, next, `O=C(Cl)OCCOC(=O)Cl`: “inactive”. Consider `CC(C)CCCCCCCOP(OCCCCCCCC(C)C)Oc1ccccc1`, for which the concentration at half-maximal activity (AC50) was active: 100 µM. In the case of `CCCCC(CC)CO[P+](=O)OCC(CC)CCCC` (configuration not stated), the compound was classed as inactive.

For the compound `CN(C(=O)Cc1cccc2occc12)[C@H]1CC[C@@]2(CCCO2)C[C@@H]1N1CCCC1`, the half-maximal activity concentration (AC50) was active: 100 µM. As for `CC(C)OP(=S)(OC(C)C)SCCNS(=O)(=O)c1ccccc1`, the result was inactive. For the compound `O=[As]c1ccccc1` (configuration not stated), the AC50 was active: 0.412 µM. In the case of `O=[p+]1oc2ccccc2c2ccccc21` (configuration not stated), the result was inactive. On the same count and under the same terms, next, `CCCCOP(OCCCC)OCCCC`: “inactive”; `Cc1cc([N+](=O)[O-])cc([N+](=O)[O-])c1O`: “inactive”; `O=P(Cl)(Oc1ccccc1)Oc1ccccc1`: “inactive”. Same read-out and setting: next, `O=[N+]([O-])c1ccc([N+](=O)[O-])cc1`: “inactive”; `N#CSc1ccc([N+](=O)[O-])cc1[N+](=O)[O-]`: “inactive”; `O=C(Cl)Oc1ccccc1`: “inactive”. The same measure, in the same setting: next, `O=C1C2CC=CCC2C(=O)N1SC(Cl)(Cl)C(Cl)Cl` (configuration not stated): “inactive”; `CCCCO[P+](=O)OCCCC`: “inactive”; `O=[P+](Oc1ccccc1)Oc1ccccc1`: “inactive”.

As usually defined, the AC50 is the midpoint of the concentration-response curve, whichever way the signal moves.
